{
  "source": "patent US20040058855A1",
  "about": "“Use of materials having zinc ionophoric behavior” (priority 2002, published 2004)",
  "assay": "Zinc availability test with metallochromic dye zincon (colour change orange to blue)",
  "type": "physicochemical",
  "conditions": "~30 mg/10 ml water, pH 7-11, zincon in ethanol",
  "description": "Zinc-containing materials (ZCMs) differ with respect to how strongly the zinc ion (Zn^2+) is held by counterions in the crystal lattice. The benefits discussed herein depend upon having available Zn^2+. […] The response is a binary visual assessment of whether or not the color changes indicating zinc-binding.\nThe method is based on the commercial metallochromic dye zincon. Zincon changes from an orange color to blue upon binding zinc and provides the basis for detecting available Zn^2+: [drawing 20]\nThe specific procedure involves making a stock solution of zincon in ethanol (˜50 mg/10 ml ethanol). The ZCM is then added to water (˜30 mg/10 ml water) and agitated (pH range should be 7-11). Three to four drops of zincon solution are then added to the ZCM in water, agitated and a visual assessment of color change made.",
  "data": [
    {"substance": "zinc salicylate", "values": [
      {"measurement": "available Zn^2+ (zincon colour change, binary visual assessment)", "result": "have available zinc"}
    ]}
  ]
}
